Assays:
ST2 cells = assay: ALP inducing activity of ST2 cells on cell culture system; assay type: cell-based, mouse
Excerpt: (§1) Human periodontal ligament (HPDL) cells were obtained according to the method of Somerman et al., (1988) from healthy premolars which were extracted from the patients for orthodontic reasons. The cells were precultured for 4-6 passages with a-MEM medium to establish the primary cell line. The cells were maintained in the alpha modification of Eagle's medium (α-MEM; Life Technologies, Grand Island, N.Y., USA) containing 10% fetal bovine serum (FBS; Asahi Technoglass, Chiba, Japan) and 1% antibiotics (100 U/ml of Penicillin-G and 100 μg/ml of Streptomycin sulfate; Gibco BRL, Grand Island, N.Y., USA) at 37° C. in a humidified 5% CO2 atmosphere. The ST2 cells (Riken Cell Bank, Tsukuba, Japan), an osteoblast-like mouse bone marrow stromal cell line, were cultured under the same conditions.
(§2) HPDL cells of approximately 5×10^5 cells per well were distributed in 96-well plates and incubated for 24 h. […] After 96 additional hours of incubation, ALP activity was determined using p-nitrophenylphosphate as a substrate. […]
The ALP inducing activities of synthetic peptides using the cell culture of HPDL cells and ST2 cells were examined. […] The ALP activity was determined after 10 min incubation at 37° C. and the absorbance at 405 nm was read using a plate reader, after adding 0.2 M NaOH to stop the reaction. […]

[1] = system: human periodontal ligament (HPDL) cells; assay: ALP inducing activity of HPDL cells on cell culture system; assay type: cell-based; details: 96 h
Excerpt: as §1, with “The ST2 cells (Riken Cell Bank, Tsukuba, Japan), an osteoblast-like mouse bone marrow stromal cell line, were cultured under the same conditions.” left out
HPDL cells were distributed in 96-well plates at a density of approximately 5×10^5 cells per a well and incubated for 24 h. […] After 96 additional hours of incubation, the cells were washed once with PBS, and ALP activity was determined after a 10 min incubation at 37° C. in 10 mM p-nitrophenylphosphate (substrate) in 100 mM 2-amino-2-methyl-1,3-propanediol-HCl buffer (pH 10.0) containing 5 mM MgCl2. After adding 0.2 M NaOH, which stopped the reaction, the absorbance at 405 nm was read on a plate reader. […]
as §2

B1: BMP-2: recombinant growth factor, control (protein, UniProt P12643 283-396, looked up)
Bone morphogenetic protein 2: QAKHKQRKRLKSSCKRHPLYVDFSDVGWNDWIVAPPGYHAFYCHGECPFPLADHLNSTNHAIVQTLVNSVNSKIPKACCVPTELSAISMLYLDENEKVVLKNYQDMVVEGCGCR
Question: Which “ALP activity of ST2 cells (porcine sheath proteins and synthetic peptides)” value (ST2 cells; 50 μg/ml protein or peptide, TGF-β1 50 ng/ml, BMP-2 500 ng/ml) does the source give for B1 here?
Answer: enhanced

Question: What about the “ALP activity of ST2 cells (Example 4)” value (ST2 cells; peptides 25 or 50 μg/mL, BMP-2 1 μg/mL, TGF-β1 0.5 or 1 ng/mL) of the same molecule?
Answer: enhanced

Question: What about the “ALP activity of HPDL cells (porcine sheath proteins and synthetic peptides)” value ([1]; 50 μg/ml protein or peptide, TGF-β1 50 ng/ml, BMP-2 500 ng/ml, 10 nM 1α-25dihydroxy-Vitamin D3) of the same molecule?
Answer: reduced the ALP activity of HPDL cells

Question: And the “ALP inducing activity of HPDL cells (Example 4)” value ([1]; peptides 50 μg/mL, TGF-β1 1 ng/mL, BMP-2 1 μg/mL, 10 nM 1α-25dihydroxy-vitamin D3)?
Answer: not influenced

Source: patent publication US8309140B2, “Effect of porcine sheath proteins on the regeneration activity of periodontal ligament” (priority 2005, dated 2012)
